{"source": "patent US6528685B2", "about": "“Compositions containing and methods of using 1-aminoindan and derivatives thereof and process for preparing optically active 1-aminoindan derivatives” (Teva Pharmaceutical Industries, Ltd., priority 1994, dated 2003)", "key": {"[1]": {"test_system": "rats", "settings": "administered over a prolonged period"}, "[2]": {"test_system": "hypoxic rat", "experiment": "α-MpT-induced hypokinesia in hypoxic rat, Experiment 1A", "settings": "for Locomotor activity after α-MpT treatment, recorded as total movements / Locomotor activity after αMpT treatment, recorded as big movements: hypoxic rats, 0.5 mg/kg/day by gavage 70-80 days; for Locomotor activity after αMpT treatment, recorded as big movements: Mean ± SEM"}, "[3]": {"test_system": "hypoxic rat", "experiment": "α-MpT-induced hypokinesia in hypoxic rat, Experiment 1B", "settings": "hypoxic rats, 0.3 mg/Kg daily i.p. 21 days; for Locomotor activity after α-MpT treatment, recorded as big movements: Mean ± SEM"}}, "note": "Values joined by “and” are separate entries in the source; they are usually repeats but may differ in a detail not shown here. Identical values can stand only once."}
{"compound": "N[C@@H]1CCc2ccccc21", "note": "[R-AI, (R)-1-aminoindan]", "values": [{"measurement": "post trauma motor function, in words", "setting": "[1]", "result": "can restore almost complete motor function"}, {"measurement": "Locomotor activity after α-MpT treatment, recorded as total movements", "setting": "[2]; hour 1 after α-MpT", "result": "67 ± 8", "unit": "%"}, {"measurement": "Locomotor activity after αMpT treatment, recorded as big movements", "setting": "[2]; hour 1 after α-MpT", "result": "109 ± 27", "unit": "%"}, {"measurement": "Locomotor activity after α-MpT treatment, recorded as total movements", "setting": "[2]; hour 2 after α-MpT", "result": "79 ± 12", "unit": "%"}, {"measurement": "Locomotor activity after αMpT treatment, recorded as big movements", "setting": "[2]; hour 2 after α-MpT", "result": "125 ± 29", "unit": "%"}, {"measurement": "Locomotor activity after α-MpT treatment, recorded as total movements", "setting": "[2]; hour 3 after α-MpT", "result": "198 ± 60", "unit": "%"}, {"measurement": "Locomotor activity after αMpT treatment, recorded as big movements", "setting": "[2]; hour 3 after α-MpT", "result": "151 ± 36", "unit": "%"}, {"measurement": "Locomotor activity after α-MpT treatment, recorded as total movements", "setting": "[2]; hour 4 after α-MpT", "result": "196 ± 17", "unit": "%"}, {"measurement": "Locomotor activity after αMpT treatment, recorded as big movements", "setting": "[2]; hour 4 after α-MpT", "result": "165 ± 40", "unit": "%"}, {"measurement": "Locomotor activity after α-MpT treatment, recorded as total movements", "setting": "[2]; hour 5 after α-MpT", "result": "138 ± 19", "unit": "%"}, {"measurement": "Locomotor activity after αMpT treatment, recorded as big movements", "setting": "[2]; hour 5 after α-MpT", "result": "254 ± 55", "unit": "%"}, {"measurement": "Locomotor activity after α-MpT treatment, recorded as total movements", "setting": "[2]; hour 6 after α-MpT", "result": "77 ± 17", "unit": "%"}, {"measurement": "Locomotor activity after αMpT treatment, recorded as big movements", "setting": "[2]; hour 6 after α-MpT", "result": "201 ± 50", "unit": "%"}, {"measurement": "Locomotor activity after α-MpT treatment, recorded as total movements", "setting": "[2]; hour 7 after α-MpT", "result": "173 ± 30", "unit": "%"}, {"measurement": "Locomotor activity after αMpT treatment, recorded as big movements", "setting": "[2]; hour 7 after α-MpT", "result": "201 ± 50", "unit": "%"}, {"measurement": "Locomotor activity after α-MpT treatment, recorded as total movements", "setting": "[2]; hour 8 after α-MpT", "result": "104 ± 18", "unit": "%"}, {"measurement": "Locomotor activity after αMpT treatment, recorded as big movements", "setting": "[2]; hour 8 after α-MpT", "result": "89 ± 23", "unit": "%"}, {"measurement": "Locomotor activity after α-MpT treatment, recorded as total movements", "setting": "[2]; hour 9 after α-MpT", "result": "95 ± 16", "unit": "%"}, {"measurement": "Locomotor activity after α-MpT treatment, recorded as total movements", "setting": "[2]; hour 10 after α-MpT", "result": "114 ± 41", "unit": "%"}, {"measurement": "Locomotor activity after αMpT treatment, recorded as big movements", "setting": "[2]; hour 10 after α-MpT", "result": "190 ± 34", "unit": "%"}, {"measurement": "level of activity (total movements) versus corresponding control group, in words", "setting": "[2]; hypoxic rats pretreated", "result": "much higher"}, {"measurement": "Locomotor activity after α-MpT treatment, recorded as total movements", "setting": "[3]; hour 1 after α-MpT 70 mg/Kg", "result": "80% and 80 ± 15%"}, {"measurement": "Locomotor activity after α-MpT treatment, recorded as big movements", "setting": "[3]; hour 1 after α-MpT 70 mg/Kg", "result": "96 ± 18", "unit": "%"}, {"measurement": "Locomotor activity after α-MpT treatment, recorded as total movements", "setting": "[3]; hour 2 after α-MpT 70 mg/Kg", "result": "87 ± 13", "unit": "%"}, {"measurement": "Locomotor activity after α-MpT treatment, recorded as big movements", "setting": "[3]; hour 2 after α-MpT 70 mg/Kg", "result": "97 ± 16", "unit": "%"}, {"measurement": "Locomotor activity after α-MpT treatment, recorded as total movements", "setting": "[3]; hour 3 after α-MpT 70 mg/Kg", "result": "132 ± 25", "unit": "%"}, {"measurement": "Locomotor activity after α-MpT treatment, recorded as big movements", "setting": "[3]; hour 3 after α-MpT 70 mg/Kg", "result": "117 ± 45", "unit": "%"}, {"measurement": "Locomotor activity after α-MpT treatment, recorded as total movements", "setting": "[3]; hour 4 after α-MpT 70 mg/Kg", "result": "115 ± 24", "unit": "%"}, {"measurement": "Locomotor activity after α-MpT treatment, recorded as big movements", "setting": "[3]; hour 4 after α-MpT 70 mg/Kg", "result": "91 ± 11", "unit": "%"}, {"measurement": "Locomotor activity after α-MpT treatment, recorded as total movements", "setting": "[3]; hour 5 after α-MpT 70 mg/Kg", "result": "65 ± 28", "unit": "%"}, {"measurement": "Locomotor activity after α-MpT treatment, recorded as big movements", "setting": "[3]; hour 5 after α-MpT 70 mg/Kg", "result": "67 ± 11", "unit": "%"}, {"measurement": "Locomotor activity after α-MpT treatment, recorded as total movements", "setting": "[3]; hour 6 after α-MpT 70 mg/Kg", "result": "76 ± 11", "unit": "%"}, {"measurement": "Locomotor activity after α-MpT treatment, recorded as big movements", "setting": "[3]; hour 6 after α-MpT 70 mg/Kg", "result": "58 ± 14", "unit": "%"}, {"measurement": "Locomotor activity after α-MpT treatment, recorded as total movements", "setting": "[3]; hour 7 after α-MpT 70 mg/Kg", "result": "65 ± 7", "unit": "%"}, {"measurement": "Locomotor activity after α-MpT treatment, recorded as big movements", "setting": "[3]; hour 7 after α-MpT 70 mg/Kg", "result": "68 ± 15", "unit": "%"}, {"measurement": "Locomotor activity after α-MpT treatment, recorded as total movements", "setting": "[3]; hour 8 after α-MpT 70 mg/Kg", "result": "40 ± 6", "unit": "%"}, {"measurement": "Locomotor activity after α-MpT treatment, recorded as big movements", "setting": "[3]; hour 8 after α-MpT 70 mg/Kg", "result": "34 ± 6", "unit": "%"}, {"measurement": "Locomotor activity after α-MpT treatment, recorded as total movements", "setting": "[3]; hour 9 after α-MpT 70 mg/Kg", "result": "72 ± 12", "unit": "%"}, {"measurement": "Locomotor activity after α-MpT treatment, recorded as big movements", "setting": "[3]; hour 9 after α-MpT 70 mg/Kg", "result": "84 ± 19", "unit": "%"}, {"measurement": "Locomotor activity after α-MpT treatment, recorded as total movements", "setting": "[3]; hour 10 after α-MpT 70 mg/Kg", "result": "69 ± 18", "unit": "%"}, {"measurement": "Locomotor activity after α-MpT treatment, recorded as big movements", "setting": "[3]; hour 10 after α-MpT 70 mg/Kg", "result": "44 ± 6", "unit": "%"}]}
